This is an account of results in article PMC7076352, “Large Volume Direct Injection Ultra-High Performance Liquid Chromatography–Tandem Mass Spectrometry-Based Comparative Pharmacokinetic Study between Single and Combinatory Uses of Carthamus tinctorius Extract and Notoginseng Total Saponins” (Pharmaceutics, 2020).

Amino acid sequences for entries named in this document (tags omitted). A change or cut given only in a name is not applied to a line headed by its entry.
UniProt P05182: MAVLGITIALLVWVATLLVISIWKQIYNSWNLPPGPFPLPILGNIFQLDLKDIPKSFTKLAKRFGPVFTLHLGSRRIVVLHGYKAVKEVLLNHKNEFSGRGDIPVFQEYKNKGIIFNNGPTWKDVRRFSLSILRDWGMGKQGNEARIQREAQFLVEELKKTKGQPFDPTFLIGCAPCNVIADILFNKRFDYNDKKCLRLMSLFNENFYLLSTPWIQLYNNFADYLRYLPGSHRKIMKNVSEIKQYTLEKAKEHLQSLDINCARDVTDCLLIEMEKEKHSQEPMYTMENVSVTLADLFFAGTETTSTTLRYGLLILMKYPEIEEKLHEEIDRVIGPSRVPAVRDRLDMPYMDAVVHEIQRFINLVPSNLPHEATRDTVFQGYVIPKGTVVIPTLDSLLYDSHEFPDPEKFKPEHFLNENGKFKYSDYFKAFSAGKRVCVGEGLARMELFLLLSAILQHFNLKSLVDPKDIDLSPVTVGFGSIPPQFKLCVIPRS

One data set has as its target CYP2E1 (Rattus norvegicus, UniProt P05182).
The target in a further data set is T1, CYP1A2 (Rattus norvegicus, UniProt P04799).
T1 sequence (P04799 1-513): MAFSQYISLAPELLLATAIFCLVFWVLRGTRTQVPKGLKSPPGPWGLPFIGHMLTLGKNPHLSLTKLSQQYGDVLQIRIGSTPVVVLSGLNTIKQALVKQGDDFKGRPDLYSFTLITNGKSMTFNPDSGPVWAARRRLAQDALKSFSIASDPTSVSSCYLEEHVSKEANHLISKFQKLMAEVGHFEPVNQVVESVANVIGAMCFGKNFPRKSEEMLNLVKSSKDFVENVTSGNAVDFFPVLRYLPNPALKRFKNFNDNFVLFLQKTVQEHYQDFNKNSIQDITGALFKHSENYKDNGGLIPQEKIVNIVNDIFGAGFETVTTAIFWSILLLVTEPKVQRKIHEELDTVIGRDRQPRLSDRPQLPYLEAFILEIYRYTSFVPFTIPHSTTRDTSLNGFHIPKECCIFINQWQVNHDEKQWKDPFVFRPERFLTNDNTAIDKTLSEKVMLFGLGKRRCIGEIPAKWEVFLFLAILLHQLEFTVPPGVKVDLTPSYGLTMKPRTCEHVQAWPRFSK
Description: In vitro cocktail CYP450 activity assay in rat liver microsomes, CYP1A2 (phenacetin probe). The conditions noted are these: read-out: IC50 CYP1A2; single components; RLM 0.2 mg/mL, 15 min, triplicate, mean ± SD. A general note: Microsomes from liver hold many membrane-bound enzymes, among them those of drug oxidation.

One may read the IC50 as the midpoint of a concentration-inhibition curve.

For notoginseng total saponins [NGTS], the “IC50 CYP2E1” value against CYP2E1 (microsomes) was 16.12 ± 2.59 mg/L. As to kaempferol-3-O-rutinoside [A11], the half-inhibitory concentration (IC50) at CYP1A2 was 53.2 ± 6.12 µM; at CYP2E1 (read-out: IC50 CYP2E1, single components, RLM 0.2 mg/mL, 15 min, triplicate, mean ± SD) it was 5.45 ± 1.37 µM.
